The source of these data is ChEMBL document CHEMBL4823270, “A first-in-class anticancer dual HDAC2/FAK inhibitors bearing hydroxamates/benzamides capped by pyridinyl-1,2,4-triazoles” (Eur J Med Chem, 2021).

In the experiment the test system is CAKI-1. Kind of experiment: Growth inhibition of human CAKI-1 cells at 10 uM incubated for 24 hrs by MTT assay relative to control. The format is functional. Conditions: read-out: GI. Summed up: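 Cells seeded at 1 × 10^4 per well, cultured overnight, then exposed to 10 μM compound or DMSO (negative control) for 24 h. After a PBS wash, MTT (2 mg/ml) was added for 4 h at 37°C and formazan dissolved in DMSO. OD read at 570 nm. Growth inhibition = 1 − (OD treated/OD control); at least three independent experiments.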

Consider `O=C(CCCCCSc1nnc(-c2ccncc2)n1-c1ccccc1)NO`, for which the inhibition of growth at 10 µM came to 7.68%.
